# Publication PMC8584244 (International Journal of Molecular Sciences, 2021)
# Target: T1, HpCAβ (Helicobacter pylori, UniProt O24855)
# T1 sequence (O24855 1-221): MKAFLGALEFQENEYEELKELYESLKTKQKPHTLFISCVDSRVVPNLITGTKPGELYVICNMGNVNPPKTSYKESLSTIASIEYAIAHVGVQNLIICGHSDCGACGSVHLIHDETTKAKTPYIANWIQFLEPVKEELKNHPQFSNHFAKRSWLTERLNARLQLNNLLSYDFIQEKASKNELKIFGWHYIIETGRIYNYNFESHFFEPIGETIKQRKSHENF
# Format: biochemical
smiles,measurement,value
Cc1ccc(C(C)C)c(O)c1 [thymol],fold higher inhibition profile of thymol over carvacrol,4 fold
